Measurements as given in US5399487A, “6-peptidylamino-1-naphthalenesulfonamides useful as fluorogenic proteolytic enzyme substrates” (Haematologic Technologies, Inc., priority 1993, dated 1995).

The chains behind the UniProt entries cited, without tags or fusion partners. Residues count along the entry.
UniProt P04070, 43-197 limits assumed: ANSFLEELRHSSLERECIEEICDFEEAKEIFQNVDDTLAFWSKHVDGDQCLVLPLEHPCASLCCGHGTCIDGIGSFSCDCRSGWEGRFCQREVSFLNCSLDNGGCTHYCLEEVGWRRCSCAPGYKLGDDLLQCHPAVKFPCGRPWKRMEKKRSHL
UniProt P04070, 212-461 limits assumed: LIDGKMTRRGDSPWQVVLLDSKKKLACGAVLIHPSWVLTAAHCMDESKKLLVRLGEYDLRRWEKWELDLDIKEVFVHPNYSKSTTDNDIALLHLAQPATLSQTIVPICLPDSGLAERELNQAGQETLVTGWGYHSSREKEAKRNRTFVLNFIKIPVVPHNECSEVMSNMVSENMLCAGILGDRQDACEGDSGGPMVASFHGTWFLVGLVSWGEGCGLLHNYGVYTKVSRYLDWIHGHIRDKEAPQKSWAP
UniProt P00750, 36-562 limits assumed: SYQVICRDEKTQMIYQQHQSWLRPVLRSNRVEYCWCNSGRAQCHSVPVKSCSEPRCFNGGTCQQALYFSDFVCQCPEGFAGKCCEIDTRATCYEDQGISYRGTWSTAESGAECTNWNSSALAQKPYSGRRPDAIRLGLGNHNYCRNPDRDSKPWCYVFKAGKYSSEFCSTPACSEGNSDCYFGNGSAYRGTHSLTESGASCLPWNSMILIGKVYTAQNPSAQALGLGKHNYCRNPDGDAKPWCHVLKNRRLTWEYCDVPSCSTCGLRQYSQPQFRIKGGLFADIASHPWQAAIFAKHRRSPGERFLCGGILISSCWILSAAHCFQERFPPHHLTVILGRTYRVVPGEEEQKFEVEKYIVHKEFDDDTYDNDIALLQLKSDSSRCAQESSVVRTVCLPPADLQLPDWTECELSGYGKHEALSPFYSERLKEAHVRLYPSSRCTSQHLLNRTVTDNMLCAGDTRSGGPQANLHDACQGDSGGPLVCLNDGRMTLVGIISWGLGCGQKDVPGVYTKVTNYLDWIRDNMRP
UniProt P00747, 97-580 limits assumed: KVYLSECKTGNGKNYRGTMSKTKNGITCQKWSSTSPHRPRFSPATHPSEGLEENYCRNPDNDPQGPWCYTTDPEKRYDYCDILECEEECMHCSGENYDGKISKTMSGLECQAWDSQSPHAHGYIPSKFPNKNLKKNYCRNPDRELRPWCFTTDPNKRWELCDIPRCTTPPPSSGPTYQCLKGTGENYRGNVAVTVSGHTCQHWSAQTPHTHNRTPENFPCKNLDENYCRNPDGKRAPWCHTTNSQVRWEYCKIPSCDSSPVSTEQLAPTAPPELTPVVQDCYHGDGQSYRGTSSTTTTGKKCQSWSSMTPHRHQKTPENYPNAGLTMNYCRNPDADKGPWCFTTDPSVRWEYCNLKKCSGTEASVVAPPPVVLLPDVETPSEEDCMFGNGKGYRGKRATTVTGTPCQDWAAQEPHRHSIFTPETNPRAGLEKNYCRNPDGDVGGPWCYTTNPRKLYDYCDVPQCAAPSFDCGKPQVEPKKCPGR
UniProt P00747, 581-810 limits assumed: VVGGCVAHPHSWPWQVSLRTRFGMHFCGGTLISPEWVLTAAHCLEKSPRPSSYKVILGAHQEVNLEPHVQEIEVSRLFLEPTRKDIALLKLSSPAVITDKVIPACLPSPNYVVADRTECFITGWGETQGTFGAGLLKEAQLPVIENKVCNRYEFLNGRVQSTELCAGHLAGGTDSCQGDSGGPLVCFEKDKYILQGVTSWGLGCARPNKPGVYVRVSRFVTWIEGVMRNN
UniProt P00742, 41-179 limits assumed: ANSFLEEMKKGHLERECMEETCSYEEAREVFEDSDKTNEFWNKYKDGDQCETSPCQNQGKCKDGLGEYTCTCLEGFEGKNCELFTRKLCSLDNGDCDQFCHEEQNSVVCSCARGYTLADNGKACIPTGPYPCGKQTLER
UniProt P00742, 235-488 limits assumed: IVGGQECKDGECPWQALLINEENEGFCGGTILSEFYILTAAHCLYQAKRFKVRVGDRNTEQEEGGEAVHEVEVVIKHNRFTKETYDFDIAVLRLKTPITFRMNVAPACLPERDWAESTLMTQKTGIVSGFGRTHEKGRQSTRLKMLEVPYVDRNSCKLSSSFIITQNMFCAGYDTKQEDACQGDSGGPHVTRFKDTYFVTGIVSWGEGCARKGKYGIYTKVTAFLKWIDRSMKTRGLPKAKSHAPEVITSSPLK

Columns and labels:
Experiment in all cases: Fluorogenic enzyme assay (Example 5)
[1] = target: activated protein C (APC) (Homo sapiens, UniProt P04070); details: tested form: HBr; for Time (min) for 10% hydrolysis, APC: enzyme 100 nM, substrate 1 μM
Method: (§1) Enzyme assays (except factor VIIa assays, see below) were conducted in 20 mM Tris, 150 mM NaCl, pH 7.4 (TBS) at room temperature (22° C.). The final volume for all reaction mixtures was 2.0 ml. Fluorogenic substrates were dissolved in DMSO to a stock concentration of 10 mM. The 10 mM stock solution was diluted in TBS to the final working concentration prior to all assays. Enzyme was added to mixtures containing buffer components and substrate and the initial rate of substrate hydrolysis was measured as the change in fluorescent intensity over time, corresponding to the generation of the particular 6-amino-1-naphthalenesulfonamide fluorophore from the provided substrate. Quantitation of substrate hydrolysis was accomplished by establishing a standard curve from the appropriate fluorescent moiety. Fluorescence was monitored (continuously or discontinuously) using a Perkin Elmer fluorescence spectrophotometer, model MPF-44A, equipped with a standard chart recorder. The fluorophore was detected using monochrometers set at an excitation wavelength of 352 nm and an emission wavelength of 470 nm. Light scattering artifacts were minimized using a 399 nm cut off filter in the emission light beam.
(§2) The kinetic constants of substrate hydrolysis were determined using the non-linear least squares regression analysis program ENZFITTER (Cambridge, UK). This program was used to iteratively fit initial rates of substrate hydrolysis to the Michaelis-Menten equation and the kinetic constants of substrate hydrolysis (Km) and (kcat) were calculated.

thrombin (IIa) = thrombin (IIa) (Homo sapiens, UniProt P00734); details: tested form: HBr; for Time (min) for 10% hydrolysis, IIa: enzyme 100 nM, substrate 1 μM; for Km: read-out: Km, IIa
Method: as §1, §2

[2] = target: tissue plasminogen activator (t-PA) (Homo sapiens, UniProt P00750); details: enzyme 100 nM, substrate 1 μM, tested form: HBr; for Time (min) for 5% hydrolysis, t-PA: footnote b
Method: as §1, §2

plasmin (Plm) = plasmin (Plm) (Homo sapiens, UniProt P00747); details: enzyme 100 nM, substrate 1 μM, tested form: HBr
Method: as §1, §2

urokinase (u-PA) = urokinase (u-PA) (Homo sapiens, UniProt P00749); details: enzyme 100 nM, substrate 1 μM, tested form: HBr
Method: as §1, §2

factor Xa = factor Xa (Homo sapiens, UniProt P00742); details: tested form: HBr; for kcat /Km, Xa / kcat, Xa / Km: Table 7; for Time (min) for 10% hydrolysis, Xa: enzyme 100 nM, substrate 1 μM; for Km: read-out: Km, Xa
Method: as §1, §2

Row | Hydrolysis kinetic constants, APC (symbol b) ([1]; Table 7) | Time (min) for 10% hydrolysis, APC [1] [min] | Hydrolysis kinetic constants, IIa (symbol b) (thrombin (IIa); Table 7) | Time (min) for 10% hydrolysis, IIa (thrombin (IIa)) [min] | Time (min) for 10% hydrolysis, Plm (plasmin (Plm)) [min] | kcat /Km, Xa (factor Xa) [M⁻¹ s⁻¹] | kcat, Xa (factor Xa) [s⁻¹] | Time (min) for 10% hydrolysis, Xa (factor Xa) [min] | Km (factor Xa) [µM] | kcat /Km, APC ([1]; Table 7) [M⁻¹ s⁻¹] | kcat, APC ([1]; Table 7) [s⁻¹] | Km ([1]; read-out: Km, APC, Table 7) [µM] | kcat /Km, IIa (thrombin (IIa); Table 7) [M⁻¹ s⁻¹] | kcat, IIa (thrombin (IIa); Table 7) [s⁻¹] | Km (thrombin (IIa); Table 7) [µM] | Time (min) for 5% hydrolysis, t-PA [2] [min] | Time (min) for 10% hydrolysis, u-PA (urokinase (u-PA)) [min] | SMILES | hydrolysis, t-PA (symbol N.D.) ([2]; after 24 hrs) | hydrolysis, u-PA (symbol N.D.) (urokinase (u-PA); after 24 hrs) | hydrolysis, Plm (symbol N.D.) (plasmin (Plm); after 24 hrs)
1 | b | 360 | b | 90 | 1220 | 924 | 0.06 | 41 | 64.9 |  |  |  |  |  |  |  |  | N=C(N)NCCC[C@H](NC(=O)OCc1ccccc1)C(=O)Nc1ccc2c(S(=O)(=O)N3CCCCC3)cccc2c1 | N.D. (Less than 5% hydrolysis after 24 hrs.) | N.D. (Less than 5% hydrolysis after 24 hrs.) | 
2 |  | 8 |  | 17 | 540 | 576 | 0.08 | 34 | 139 | 3600 | 0.62 | 171 | 1260 | 0.04 | 32.4 | 720 | 28 | CCCCNS(=O)(=O)c1cccc2cc(NC(=O)[C@H](CCCNC(=N)N)NC(=O)OCc3ccccc3)ccc12 |  |  | 
3 | b | 34 |  | 30 |  | 636 | 0.08 | 25 | 121 |  |  |  | 820 | 0.14 | 171 | 1140 | 270 | CCNS(=O)(=O)c1cccc2cc(NC(=O)[C@H](CCCNC(=N)N)NC(=O)OCc3ccccc3)ccc12 |  |  | N.D. (Less than 5% hydrolysis after 24 hrs.)
